# Binding of CDR-mutated scFvs to a peptide of the spike HR2 region

Reference: Li et al. 2023, doi:10.1038/s41467-023-39022-2. File: FLAb, binding data.

All variants were tested on one target, the spike HR2 peptide PDVDLGDISGINAS (SARS-CoV-2).

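The starting antibody came from a phage panning campaign against this peptide. This is the validation round: designs drawn from the data on random variants, tested in the same kind of assay. Group labels follow the data file (En: ensemble of fine-tuned language models; HC: hill climbing; Gen: genetic algorithm; Gibbs: Gibbs sampling; a sequence that several methods proposed may carry one label only). In AlphaSeq, yeast of one mating type display the scFv and yeast of the other type display the target. Pairs that bind mate more often; barcode pairs of the diploids are counted by sequencing. Each replicate has its own calibration line, from reference interactions of the BCL2 family. Each pool was mated in six replicate cultures.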

The variants keep the light chain, the linker and the frameworks of Ab-14 (scFv order VH, a (GGGGS)3 linker, VL).
VH: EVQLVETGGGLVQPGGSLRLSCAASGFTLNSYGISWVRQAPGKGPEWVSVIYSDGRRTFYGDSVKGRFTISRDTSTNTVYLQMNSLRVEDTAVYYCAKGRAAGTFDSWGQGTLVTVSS
VL: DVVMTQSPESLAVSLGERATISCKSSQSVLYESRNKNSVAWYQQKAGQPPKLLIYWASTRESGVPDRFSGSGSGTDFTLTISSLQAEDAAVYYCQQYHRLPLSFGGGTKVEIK

The parent's heavy chain CDRs are GFTLNSYGIS, VIYSDGRRTFYGDSVK, GRAAGTFDS; each variant's own CDRs replace them letter for letter.
This list holds designs with more than six substitutions.
Kd is apparent (estimated from mating counts) and averaged on the log scale over replicates with a signal. Smaller is tighter.
An entry "nd" has no value in the source: the pair was not observed among the diploids in any replicate. This suggests poor binding but is not conclusive.
Entries are sorted by rising average, undetected variants last.

- GFDLNEYGIS / VIYADGIRTFYADSVK / GNAAGTFDE [En_HC] = 63 pM (5 of 6 replicates)
- GFDLDEYGIS / VIYADGRRTAYSDSVK / GNTAGTFDV [En_Gen] = 76 pM (6 of 6 replicates)
- GFDLDEYGIS / VIYADGMRTAYSDSVK / GNVAGTFDE [En_Gen] = 260 pM (6 of 6 replicates)
- GFDLNDYGIS / VIYADGRRTAYSDSVK / GEVAGTFDS [En_HC] = 270 pM (6 of 6 replicates)
- GFDLNEYGIS / VIYADGMRTAYADDVK / GNVAGTFDS [En_Gen] = 270 pM (6 of 6 replicates)
- GFDLNEYGIS / VIYADGRRTAYIDSVK / GEVAGTFDI [En_HC] = 280 pM (6 of 6 replicates)
- GFDLNDYGIS / VIYADGRRTAYIDSVK / GEVAGTFDK [En_HC] = 280 pM (6 of 6 replicates)
- GFDLNEYGIS / VIYADGMRTAYSDAVK / GNVAGTFDV [En_Gen] = 290 pM (6 of 6 replicates)
- GFDLDEYGIS / VIYADGQRTFYIDSVK / GETAGTFDV [En_HC] = 290 pM (6 of 6 replicates)
- GFDLNEYGIS / VIYADGMRTAYADSVK / GETAGTFDM [En_Gen] = 300 pM (6 of 6 replicates)
- GFDLNEYGIS / VIYADGVRTFYVDSVK / GQTAGTFDS [En_HC] = 380 pM (6 of 6 replicates)
- GFDLNEYGIS / VIYADGMRTSYVDDVK / GENAGTFDV [En_Gen] = 380 pM (6 of 6 replicates)
- GFDLNEYGIS / VIYADGKRTFYADSVK / GKIAGTFNV [En_HC] = 400 pM (6 of 6 replicates)
- GFDLDEYGIS / VIYADGMRTSYADSVK / GETAGTFDV [En_Gen] = 400 pM (6 of 6 replicates)
- GFDLDEYGIS / VIYADGMRTAYADSVK / GEIAGTFDV [En_Gen] = 430 pM (6 of 6 replicates)
- GFDLDEYGIS / VIYADGVRTAYTDSVK / GNVAGTFDL [En_Gen] = 490 pM (6 of 6 replicates)
- GFDLNEYGIS / VIYADGIRTAYADSVK / GQNAGTFDV [En_Gen] = 640 pM (6 of 6 replicates)
- GFDLNEYGIS / VIYADGSRTAYIDSVK / GNQAGTFDV [En_Gen] = 710 pM (6 of 6 replicates)
- GFDLEDYGIS / VIYADGMRTAYSDSVK / GEVAGTFDV [En_Gen] = 750 pM (6 of 6 replicates)
- GFDLNEYGIS / VIYADGRRTAYADDVK / GNNAGTFDM [En_Gen] = 830 pM (6 of 6 replicates)
- GFDLNEYGIS / VIYADGVRTAYTDSVK / GENAGTFDM [En_Gen] = 900 pM (6 of 6 replicates)
- GFDLNEYGIS / VIYADGMRTAYADSVK / GNVAGTFDV [En_Gen] = 1.3 nM (6 of 6 replicates)
- GFDLNEYGIS / VIYADGMRTAYTDSVK / GNEAGTFDE [En_HC] = 1.4 nM (6 of 6 replicates)
- GFDLEEYGIS / VIYADGQRTFYSDSVK / GENAGTFDV [En_HC] = 1.6 nM (6 of 6 replicates)
- GFDLDEYGIS / VIYADGQRTAYADSVK / GETAGTFDL [En_Gen] = 1.7 nM (6 of 6 replicates)
- GFDLNEYGIS / VIYADGKRTFYSDSVK / GNVGGTFDS [En_HC] = 2.3 nM (6 of 6 replicates)
- GFDLNEYGIS / VIYADGMRTAYVDSVK / GNEAGTFDI [En_Gen] = 2.4 nM (6 of 6 replicates)
- GFDLNEYGIS / VIYADGMRTQYIDSVK / GNVAGTFDV [En_HC] = 4.7 nM (6 of 6 replicates)
- GFDLDEYGIS / VIYADGQRTAYADDVK / GENAGTFDQ [En_Gen] = 4.9 nM (6 of 6 replicates)
- GFDIEEYGIS / VIYADGVRMMYASNFK / GKIAGTGLL [En_Gibbs] = 6.4 nM (4 of 6 replicates)
- GMDLNEYGIS / VIYADGRRAAYINQVK / GSNSDTVSL [En_Gibbs] = 25 nM (2 of 6 replicates)
- GMDLENYGIS / VIYADGKRKAYAQKFK / GHTGGTFAD [En_Gibbs] = 47 nM (5 of 6 replicates)
- GFDLNEMGIS / VIYADGDRKAYQDAVK / GDVSGDFDE [En_Gibbs] = 200 nM (1 of 6 replicates)
- GFNLDEYGIS / VIYADGRRVAYANNVK / GKNGAFFSN [En_Gibbs] = 380 nM (2 of 6 replicates)
- GFSLDEQGIS / VIYADGIRRSYAQKVK / GQYGGDFIE [En_Gibbs] = 9.6 µM (1 of 6 replicates)
- GFGLDEYGIS / VIYADGMRANYATSVK / GYQAGVIST [En_Gibbs] = nd (0 of 6 replicates)
- GFNIDEYGVS / VIYADGERTYYADKVK / GHNGVMALD [En_Gibbs] = nd (0 of 6 replicates)
- GFSIDEQGIS / VIYADGIRASYAPKVK / GQYAGDFIE [En_Gibbs] = nd (0 of 6 replicates)
- GESLEQYGIS / VIYADGMRTSYTNSVK / GVWAGTFMQ [En_Gibbs] = nd (0 of 6 replicates)
- GQDINEYGIS / VIYADGRRKAYSQQVK / GQNLGDVEV [En_Gibbs] = nd (0 of 6 replicates)
- GFQLNEYGIS / VIYADGRRTAYSQSVK / GLNGGIIDV [En_Gibbs] = nd (0 of 6 replicates)
- GFNLEEYGIS / VIYADGKRTQYSENVK / GHIGNVRVV [En_Gibbs] = nd (0 of 6 replicates)
- GMDLNEYGIS / VIYADGLRTAYINAVK / GKGSVIVGH [En_Gibbs] = nd (0 of 6 replicates)
- EFDLNEYGIS / VIYADGHRSFYIDTVK / GQQAGIFNM [En_Gibbs] = nd (0 of 6 replicates)
- GFSLDEFGIS / VIYADGMRSFYTDNVK / GINGNALWI [En_Gibbs] = nd (0 of 6 replicates)
- GFDVNEYGIS / VIYADGTRTAYANTVK / GKYVGVFVD [En_Gibbs] = nd (0 of 6 replicates)
- GFDLNEYGVS / VIYADGFRTSYTDSVK / GHVVDLLMA [En_Gibbs] = nd (0 of 6 replicates)
- GNDLEEYGIS / VIYADGMRTAAVDSVK / GDQSGTVVF [En_Gibbs] = nd (0 of 6 replicates)
- GFDLNEYGIS / VIYADGRRTFYIDSVK / GESAGTFDQ [En_HC] = nd (0 of 6 replicates)
- GFDLDEYGVS / VIYADGQRTYYTNAVK / GEISAGFLI [En_Gibbs] = nd (0 of 6 replicates)
- GFNLSEYGIS / VIYADGNRTFYAPNVK / GQFNDVLNM [En_Gibbs] = nd (0 of 6 replicates)
- GFDLKEQGIS / VIYADGMRTFYSDKVK / GQNSNGFDM [En_Gibbs] = nd (0 of 6 replicates)

Repeated from above, the 7 best binders with a signal in all replicates:

| CDR-H1 | CDR-H2 | CDR-H3 | group | Kd (apparent) | seen in |
|---|---|---|---|---|---|
| GFDLDEYGIS | VIYADGRRTAYSDSVK | GNTAGTFDV | En_Gen | 76 pM | 6 of 6 |
| GFDLDEYGIS | VIYADGMRTAYSDSVK | GNVAGTFDE | En_Gen | 260 pM | 6 of 6 |
| GFDLNDYGIS | VIYADGRRTAYSDSVK | GEVAGTFDS | En_HC | 270 pM | 6 of 6 |
| GFDLNEYGIS | VIYADGMRTAYADDVK | GNVAGTFDS | En_Gen | 270 pM | 6 of 6 |
| GFDLNEYGIS | VIYADGRRTAYIDSVK | GEVAGTFDI | En_HC | 280 pM | 6 of 6 |
| GFDLNDYGIS | VIYADGRRTAYIDSVK | GEVAGTFDK | En_HC | 280 pM | 6 of 6 |
| GFDLNEYGIS | VIYADGMRTAYSDAVK | GNVAGTFDV | En_Gen | 290 pM | 6 of 6 |

Nonspecific signal, from three strains lacking the peptide, appeared in 1% of pairings of all heavy chain designs, centred on 120 nM (5% of these signals below 7.0 nM); values are not corrected for it.
The authors averaged sequences with at least three values out of six and counted those with two or fewer as poor binders.
Of ten entries with the parent sequence, four were seen in most replicates (averages 2.2 nM to 240 nM), three in one and three in none, so single entries are noisy.
Values of this round are not directly comparable with the first-round values of the same sequences.